Assay: Inhibition of human BCL-2 overexpressed in mouse FDC-P1 cells assessed as cell viability after 24 hrs by Cell Titer Glo assay

CC1(C)CCC(c2ccc(Cl)cc2)=C(CN2CCN(c3ccc(C(=O)NS(=O)(=O)c4ccc(N[C@H](CCN5CCOCC5)CSc5ccccc5)c(S(=O)(=O)C(F)(F)F)c4)cc3)CC2)C1 [ABT-263]
IC50: < 0.015 µM

Source: BindingDB's records for doi:10.1016/j.bmcl.2014.05.036 (Astrazeneca, 2014)
